According to patent publication US20180298101A1 (published 2018):

What was measured:
[1] = molecular target: human full-length CIS in trimeric complex with elongin B and elongin C (UniProt Q9NSE2 1-258; Q15370 1-118; Q15369 17-112); test: ITC
[2] = molecular target: human CIS lacking both the N-terminal region (residues 1-66) and the PEST motif (ΔNT/ΔPEST) in trimeric … (UniProt Q9NSE2 67-258; Q15370 1-118; Q15369 17-112); test: ITC

B1: JAK3 activation loop phosphopeptide, doubly phosphorylated (JAK3-Y980, Y981) (peptide)
peptide: LLPLDKDYYVVREPGQ
modifications: phosphotyrosine at Tyr980 and Tyr981 (JAK3 numbering)
Kd [1]: 1100 nM
Kd [2]: 700 nM
